# scFv variants of Ab-95 (light chain) against a SARS-CoV-2 spike peptide

Binding partner: SARS-CoV-2 spike HR2 peptide, sequence PDVDLGDISGINAS.

Each scFv is VH, a 15-residue (Gly4Ser)3 linker, VL, as in the parent Ab-95, and differs from it in the CDRs of the light chain only.
VH: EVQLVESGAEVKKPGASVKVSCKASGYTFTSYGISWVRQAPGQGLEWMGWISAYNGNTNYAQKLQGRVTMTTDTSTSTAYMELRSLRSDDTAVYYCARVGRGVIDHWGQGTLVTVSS
VL: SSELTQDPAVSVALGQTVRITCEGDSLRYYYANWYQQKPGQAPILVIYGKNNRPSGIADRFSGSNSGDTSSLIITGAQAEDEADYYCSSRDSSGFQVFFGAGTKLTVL

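The library (AAYL52) carries one to three amino acid substitutions per variant, with no insertions or deletions. In AlphaSeq, yeast of one mating type display the scFv and yeast of the other type display the target. Pairs that bind mate more often; barcode pairs of the diploids are counted by sequencing. A regression on co-assayed BCL2-family reference pairs converts the normalised counts of each replicate to an apparent Kd. There are three technical replicates.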

Each variant is given by its three light chain CDRs, as the data file delimits them; those of the parent are EGDSLRYYYAN, GKNNRPS, SSRDSSGFQVF. All variants listed here change G94 of the VL, counted from its first residue. Each Kd is an estimate from the mating assay, the geometric mean of the replicates in which the pair was seen; lower is stronger. An entry "nd" has no value in the source: the pair was not observed among the diploids in any replicate. This suggests poor binding but is not conclusive. For reference, the parent read 200 nM as the reference entry and 180 nM as a member of this library. As a blank, each scFv also met three strains without target: over library AAYL52, 28% of these pairings were detected, typically at 8.2 µM and seldom below 800 nM.

Variant EGDSLRYWYAN | GKNNRPS | SSRDSSHFQVF gave 15 µM (2 of 3 replicates). Variant EGDSLRYYYKN | GKNNRPS | SSRDSKFFQVF showed 3.1 µM (1 of 3 replicates). Variant EGDSLRYRYAN | GKNNRPS | SSRDSACFQVF showed 500 nM (3 of 3 replicates). Variant EGDSLRYYYAN | GKNNRPS | SSLDSSKFQVF showed 170 nM (3 of 3 replicates). With EGDSLRYYYAN | GKNERPS | SSRDSGHFQVF the result was 1.3 µM (2 of 3 replicates). Variant EGDSLRYYYAN | GKNNRDS | SSWDSSCFQVF showed 12 µM (1 of 3 replicates).

Variant EGDSLRYYYAN | MKNNRPS | SSRDTSNFQVF gave 8.1 µM (1 of 3 replicates). Variant EGLSLRYYVAN | GKNNRPS | SSRDSSEFQVF showed nd (0 of 3 replicates). Variant EGDSLDYSYAN | GKNNRPS | SSRDSSCFQVF gave 680 nM (3 of 3 replicates). With EGDSLHYYYAN | GKVNRPS | SSRDSSVFQVF the result was 28 µM (3 of 3 replicates). For ERDSLWYYYAN | GKNNRPS | SSRDSSKFQVF, the assay gave nd (0 of 3 replicates). Variant EGDSLRYYYAW | GKNSRPS | SSRDSSFFQVF showed 84 µM (1 of 3 replicates).

For EGDSLRYNYAN | GKTNRPS | SSRDSSEFQVF, the assay gave 43 nM (3 of 3 replicates). For EGDSLRYEQAN | GKNNRPS | SSRDSSCFQVF, the assay gave 160 nM (3 of 3 replicates). Variant EGDSLRYYYAN | GKNNRPS | SSRDDSCFQVF gave 6.7 µM (3 of 3 replicates). With EGDSLRYYYAN | GKNNRPS | SSRDSRQFQHF the result was 2.7 µM (1 of 3 replicates). Variant EGDALRYYYAN | GKNNWPS | SSRDSSNFQVF showed nd (0 of 3 replicates). For EGDSLRYYYAN | GKNNRPS | SSRDSSMFMVA, the assay gave 150 nM (3 of 3 replicates).

For EGDSLRYYYAN | NKNNRPS | SSLDSSVFQVF, the assay gave 2.1 µM (1 of 3 replicates). With EGDSLRYYYAN | GKNNRPS | SSVDSSMRQVF the result was nd (0 of 3 replicates). Variant EGDSLRSYYAN | GKNNRPS | VSRDSSYFQVF showed nd (0 of 3 replicates). Variant EGDSLRNYYAN | GKNNRPS | ESRDSSSFQVF gave 200 nM (3 of 3 replicates). Variant EGDTLRYYYAI | GKNNRPS | SSRDSSTFQVF gave 30 µM (2 of 3 replicates). With EGDSLEYYYAN | GKNNRPF | SSRDSSNFQVF the result was 210 µM (1 of 3 replicates).

With EGDSLRYYYAN | GKNNRPS | SSRDSQMFQVH the result was 2.5 µM (2 of 3 replicates). Variant EGDSLRYYYAN | GKNNRPS | SSRDSSPFQVF gave 230 nM (3 of 3 replicates). With EDDSLRYYFAN | GKNNRPS | SSRDSSNFQVF the result was 3.6 µM (2 of 3 replicates). Variant ESDSLRYYYAN | GKNNRPS | SSRDVSLFQVF gave 14 µM (1 of 3 replicates). With EGDSLRYYYAN | GKNNRPS | SSRASSVFQFF the result was 150 nM (3 of 3 replicates). With EGDSLRYYYAN | GKNNRPS | SGRHSSKFQVF the result was nd (0 of 3 replicates).

With EGDSLRYYYAN | GKNNYPS | SSRDSSKFQIF the result was nd (0 of 3 replicates). Variant EGDSLRYYYAN | GKNNVPS | SSRSSSDFQVF showed 5.1 µM (2 of 3 replicates). For EGDSLRYYYAY | TKNNRPS | SSRDSSAFQVF, the assay gave nd (0 of 3 replicates). Variant EGDSLGYYYAN | GKNNRPS | SSRDSSRFQVG showed 66 µM (3 of 3 replicates).

From the list, the first 4 with no signal in any replicate:

| CDR-L1 | CDR-L2 | CDR-L3 | Kd | replicates with signal |
|---|---|---|---|---|
| EGLSLRYYVAN | GKNNRPS | SSRDSSEFQVF | nd | 0 of 3 |
| ERDSLWYYYAN | GKNNRPS | SSRDSSKFQVF | nd | 0 of 3 |
| EGDALRYYYAN | GKNNWPS | SSRDSSNFQVF | nd | 0 of 3 |
| EGDSLRYYYAN | GKNNRPS | SSVDSSMRQVF | nd | 0 of 3 |

Source: Engelhart et al. 2022 (doi:10.1038/s41597-022-01779-4), MIT Lincoln Laboratory and A-Alpha Bio; data file from the FLAb repository.